From US20230357346A1 (GI INNOVATION, published 2023) come the findings set out here.

This assay addresses T1, interleukin-1 receptor alpha (IL-1Rα).
T1 construct: Bought reagent, coated on AR2G biosensors at 1 µg/ml; also called IL-1Rα (R&D systems)
In words: BLI (Octet RED384), IL-1Rα coated on AR2G biosensor, GI-210B1 at 15.6 to 1,000 nM. The procedure: The binding capacity of GI-210B1, obtained by the method of Preparation Example 1, to interleukin-1 receptor alpha (IL-1Rα) was measured. Here, the binding capacity to IL-1Rα was checked using Octet RED384 (ForteBio). An amine reactive 2nd generation (AR2G) biosensor was immersed in a 1× kinetic buffer for 10 minutes, and then used. IL-1Rα (R&D systems) was prepared at 1 μg/ml, the biosensor was coated with the IL-1Rα, the GI-210B1 was serially diluted to 15.6 to 1,000 nM, and then the binding capacity was measured at each concentration.
A general note: In BLI a coated tip is dipped into the sample, and binding shifts an interference pattern.

The koff is a measure of how fast the partners let go of each other. A high value points to fast dissociation. The kon is the second-order rate constant of association. A lower kon goes with slower complex formation.

B1: GI-210B1 (GLP-1-IgG4 Fc-IL-1Ra) fusion protein dimer (Fc fusion)
chain: HGEGTFTSDVSSYLEEQAAKEFIAWLVKGGGGGGGSGGGGSGGGGSGGAESKYGPPCPPCPAPEAAGGPSVFLFPPKPKDQLMISRTPEVTCVVVDVSQEDPEVQFNWYVDGVEVHNAKTKPREEQFNSTYRVVSVLTVLHQDWLNGKEYKCKVSNKGLPSSIEKTISKAKGQPREPQVYTLPPSQEEMTKNQVSLTCLVKGFYPSDIAVEWESNGQPENNYKTTPPVLDSDGSFFLYSRLTVDKSRWQEGNVFSCSVLHEALHNHYTQKSLSLSLGGGGGSGGGGSGGGGSGGRPSGRKSSKMQAFRIWDVNQKTFYLRNNQLVAGYLQGPNVNLEEKIDVVPIEPHALFLGIHGGKMCLSCVKSGDETRLQLEAVNITDLSENRKQDKRFAFIRSDSGPTTSFESAACPGWFLCTAMEADQPVSLTNMPDEGVMVTKFYFQEDE
notes: also called GI-210B1 fusion protein
B1 displayed a koff of 0.0093 s⁻¹ and a kon of 22000 M⁻¹ s⁻¹.
